# Tested on: K-Ras mutated colorectal cancer cell line (Lovo cell line)
# Test: Cell proliferation assay (Cell Counting Kit-8), Lovo cell line
# Type: cell-based
# Conditions: c-Src inhibitor concentration varied, ME22S fixed at 5 μg/ml, FIG. 6, FIG. 7
# Description: To examine the cell proliferation inhibition effect depending on the amount of a bispecific anti-c-Met/anti-EGFR antibody, the experiment was carried out by varying the amount of the treated bispecific anti-c-Met/anti-EGFR antibody with fixing the amount of dasatini as 30 nM.
# This experiment was conducted referring to the experiment of the cell proliferation test depending on the amount of the antibody as described above, except the amount of the treated antibody and the c-Src inhibitor.
structure (smiles),measurement,value
"Cc1nc(Nc2ncc(C(=O)Nc3c(C)cccc3Cl)s2)cc(N2CCN(CCO)CC2)n1 [dasatinib, N-(2-chloro-6-methylphenyl)-2-[[6-[4-(2-hydroxyethyl)-1-piperazinyl]-2-methyl-4-pyrimidinyl]amino]-5-thiazole carboxamide monohydrate, reference compound]",dose dependence of the synergistic effect by co-treatment with ME22S,generally dose-dependent for the c-Src inhibitor
